Amino acid sequences for entries named in this document (tags omitted).
UniProt Q8NER1, whole entry: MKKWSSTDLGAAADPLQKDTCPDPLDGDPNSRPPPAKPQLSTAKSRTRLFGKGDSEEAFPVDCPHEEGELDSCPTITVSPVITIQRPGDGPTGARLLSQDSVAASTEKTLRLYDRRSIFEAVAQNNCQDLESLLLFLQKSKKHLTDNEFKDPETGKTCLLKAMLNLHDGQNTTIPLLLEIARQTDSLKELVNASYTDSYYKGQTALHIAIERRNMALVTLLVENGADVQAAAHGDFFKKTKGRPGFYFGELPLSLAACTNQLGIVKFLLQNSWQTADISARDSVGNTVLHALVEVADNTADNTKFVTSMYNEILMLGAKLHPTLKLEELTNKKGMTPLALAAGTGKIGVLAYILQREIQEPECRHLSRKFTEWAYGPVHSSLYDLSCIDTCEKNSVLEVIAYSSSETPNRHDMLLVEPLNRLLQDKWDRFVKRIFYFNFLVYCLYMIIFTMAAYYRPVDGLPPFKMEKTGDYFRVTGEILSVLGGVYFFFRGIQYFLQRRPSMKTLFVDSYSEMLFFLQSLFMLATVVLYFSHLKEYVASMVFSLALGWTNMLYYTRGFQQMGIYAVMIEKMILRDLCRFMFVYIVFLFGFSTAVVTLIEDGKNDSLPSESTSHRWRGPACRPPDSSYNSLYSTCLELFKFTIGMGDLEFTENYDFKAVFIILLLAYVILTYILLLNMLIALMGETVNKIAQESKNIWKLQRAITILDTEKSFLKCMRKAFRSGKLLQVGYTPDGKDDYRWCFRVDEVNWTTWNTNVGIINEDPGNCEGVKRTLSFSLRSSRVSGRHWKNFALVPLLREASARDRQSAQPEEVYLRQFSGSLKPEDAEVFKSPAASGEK

In this experiment the target is human TRPV1 receptor (hTRPV1) (Homo sapiens (Human), UniProt Q8NER1). Description: Capsaicin activation assay (FLIPR intracellular Ca2+). The class given is cell-based. As to conditions: Table 1; inhibition of capsaicin-induced intracellular Ca2+ increase, HEK293 cells expressing human TRPV1; read-out: hTRPV1 cap IC50. The protocol: Dulbecco's modified Eagle medium (D-MEM) (with 4.5 mg/mL glucose) and fetal bovine serum were obtained from Hyclone Laboratories, Inc. (Logan, Utah). Dulbecco's phosphate-buffered saline (D-PBS) (with 1 mg/mL glucose and 3.6 mg/l Na pyruvate, without phenol red), L-glutamine, hygromycin B, and Lipofectamine® were obtained from Life Technologies (Grand Island, N.Y.). G418 sulfate was obtained from Calbiochem-Novabiochem Corp. (San Diego, Calif.). Capsaicin (8-methyl-N-vanillyl-6-nonenamide) was obtained from Sigma-Aldrich, Co. (St. Louis, Mo.). Fluo-4 AM (N-[4-[6-[(acetyloxy)methoxy]-2,7-difluoro-3-oxo-3H-xanthen-9-yl]-2-[2-[2-[bis[2-[(acetyloxy)methoxy]-2-oxyethyl]amino]-5-methyl phenoxy]ethoxy]phenyl]-N-[2-[(acetyloxy)methoxy]-2-oxyethyl]-glycine, (acetyloxy)methyl ester) was purchased from Molecular Probes (Eugene, Oreg.). […]
The functional activity of compounds at the TRPV1 receptor was determined by measurement of intracellular Ca^2+ levels ([Ca^2+]i) using the Fluorescence Imaging Plate Reader (FLIPR)^TETRA®. All compounds were tested over a 12-point one-third-log concentration range. Compound stocks, 10 mM, were prepared in DMSO, and diluted serially across a 384-well plate using a Bravo BenchCel workstation (Agilent Technologies, Santa Clara, Calif.). A stock concentration of capsaicin (10 mM) was made in DMSO, and diluted in D-PBS to a final concentration of 200 nM (4×). On the day prior to the experiment, recombinant HEK293 cells that stably express human TRPV1 were removed from tissue culture flasks and plated in growth medium into black-walled clear-bottom 384-well Biocoat™ poly-D-lysine assay plates (BD Biosciences, Bedford, Mass.) using a Multidrop® dispenser (ThermoScientific, Waltham, Mass.). On the day of the experiment, growth medium was removed, and the no-wash FLIPR® Calcium-4 dye (λEX=470-495 nm, λEM=515-575 nm; Molecular Devices, Sunnyvale, Calif.) was added to each well using the Multidrop® dispenser. Cells were incubated for 90-120 minutes in the dark at room temperature. Test compounds were added to the cells 3 minutes prior to the addition of 200 nM capsaicin (4×), and the final assay volume was 80 μL. Fluorescence readings were made at 1 to 5 second intervals over the course of the experimental run. The peak increase in relative fluorescence units (minus baseline) was calculated, and expressed as a percentage of the 50 nM capsaicin (control) response.
Usually IC50 stands for the midpoint of a concentration-inhibition curve. As for `Cc1cnc([C@@H]2CC[C@H](NC(=O)Nc3cccc4[nH]ncc34)C2)o1` (stereo in doubt) [Example 126, 1-(1H-indazol-4-yl)-3-[(1S*,3R*)-3-(5-methyl-1,3-oxazol-2-yl)cyclopentyl]urea], the half-maximal inhibitory concentration (IC50) was 997 nM.

Turning to `O=C(Nc1cccc2[nH]ncc12)N[C@@H]1CCC(c2nc(C(F)(F)F)cs2)C1` (stereo partly drawn) [Example 131, 1-(1H-indazol-4-yl)-3-{(1R)-3-[4-(trifluoromethyl)-1,3-thiazol-2-yl]cyclopentyl}urea], the half-inhibitory concentration (IC50) was 133 nM.

With `Cc1csc([C@H]2CC[C@H](NC(=O)Nc3cccc4[nH]ncc34)C2)n1` (relative stereo) [Example 119, 1-(1H-indazol-4-yl)-3-[(trans)-3-(4-methyl-1,3-thiazol-2-yl)cyclopentyl]urea], the IC50 came out at 720 nM.

Consider `Cc1cnc([C@H]2CC[C@@H](NC(=O)Nc3cccc4[nH]ncc34)C2)o1` (stereo in doubt) [Example 128, 1-(1H-indazol-4-yl)-3-[(1R*,3S*)-3-(5-methyl-1,3-oxazol-2-yl)cyclopentyl]urea], for which the IC50 was determined as 8640 nM.

As to `Cc1cc2c(NC(=O)N[C@H]3CC[C@@H](c4ncc(C)o4)C3)c(F)ccc2cn1` (stereo in doubt) [Example 125, 1-(6-fluoro-3-methylisoquinolin-5-yl)-3-[(1S*,3R*)-3-(5-methyl-1,3-oxazol-2-yl)cyclopentyl]urea], the IC50 was determined as 1460 nM.

Take `Cc1cc2c(NC(=O)N[C@@H]3CC[C@H](c4ncc(C)o4)C3)c(F)ccc2cn1` (stereo in doubt) [Example 127, 1-(6-fluoro-3-methylisoquinolin-5-yl)-3-[(1R*,3S*)-3-(5-methyl-1,3-oxazol-2-yl)cyclopentyl]urea]: the IC50 came out at 5760 nM.

Regarding `O=C(Nc1cccc2[nH]ncc12)N[C@H]1CC[C@H](c2ccccn2)C1` (racemic) [Example 39, 1-(1H-indazol-4-yl)-3-[trans-3-(pyridin-2-yl)cyclopentyl]urea], the half-maximal inhibitory concentration (IC50) amounted to 862 nM.

In the case of `O=C(Nc1cccc2[nH]ncc12)N[C@H]1CC[C@@H](c2ccccn2)C1` (relative stereo) [Example 38, 1-(1H-indazol-4-yl)-3-[cis-3-(pyridin-2-yl)cyclopentyl]urea], the concentration for half-maximal inhibition (IC50) turned out to be 499 nM.

The values are drawn from patent US8802711B2, “TRPV1 antagonists” (AbbVie Inc., priority 2011, dated 2014).
